Measured values: patent US6926913B2, “Composition containing molecular iodine” (dated 2005)

Tested on: sulfur mustard (SM)-induced skin burns
Assay: Protective effect of iodine against sulfur mustard (SM)-induced skin burns in haired guinea pig model
Details: 0.1 ml of 2% solution s.c. 20 min prior to SM

## CCN(CC)CC(=O)Nc1c(C)cccc1C
  effect on the protective effect of iodine: no effect
